The target in this assay is EhCrtM (Enterococcus hirae, UniProt I6T9U8).

On to `CC(C)=CCC/C(C)=C/CC/C(C)=C/COP(=O)(O)OP(=O)(O)O` [compound 1, farnesyl diphosphate], for which the “product identification (dehydrosqualene)” value is given as “The protein produced dehydrosqualene from FPP”.

The values are drawn from PMC5569891 (Chembiochem : a European journal of chemical biology, 2017).
